Test results published in patent publication US20210024483A1, “HETEROCYLCOALKENYL DERIVATIVES USEFUL AS AGONISTS OF THE GPR120 AND / OR GPR40” (Janssen Pharmaceutica NV, priority 2018, published 2021).

Sequences of proteins named here, by UniProt entry; tags and fusion partners are left off. A change or cut given only in a name is not applied to a line headed by its entry. Residues count along the entry.
UniProt Q5NUL3, whole entry: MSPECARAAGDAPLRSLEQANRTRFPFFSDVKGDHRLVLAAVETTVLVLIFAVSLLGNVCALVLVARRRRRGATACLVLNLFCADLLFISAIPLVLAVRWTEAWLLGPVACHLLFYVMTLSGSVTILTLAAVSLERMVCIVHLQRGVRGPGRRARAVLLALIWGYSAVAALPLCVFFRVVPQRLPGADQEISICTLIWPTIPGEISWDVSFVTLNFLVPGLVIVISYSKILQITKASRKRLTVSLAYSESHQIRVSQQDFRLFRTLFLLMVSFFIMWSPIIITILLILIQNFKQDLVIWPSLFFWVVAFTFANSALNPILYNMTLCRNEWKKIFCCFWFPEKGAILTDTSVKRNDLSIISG
UniProt Q5NUL3, 1-377 isoform 1: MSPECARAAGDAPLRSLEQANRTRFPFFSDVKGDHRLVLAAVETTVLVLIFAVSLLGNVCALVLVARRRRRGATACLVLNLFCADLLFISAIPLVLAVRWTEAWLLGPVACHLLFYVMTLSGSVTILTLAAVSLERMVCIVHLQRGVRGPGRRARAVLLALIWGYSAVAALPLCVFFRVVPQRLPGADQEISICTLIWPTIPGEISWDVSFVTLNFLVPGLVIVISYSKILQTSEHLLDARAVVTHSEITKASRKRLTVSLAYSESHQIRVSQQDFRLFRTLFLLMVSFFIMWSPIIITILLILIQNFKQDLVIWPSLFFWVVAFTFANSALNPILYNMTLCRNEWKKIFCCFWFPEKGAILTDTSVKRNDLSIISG
UniProt O14842, whole entry: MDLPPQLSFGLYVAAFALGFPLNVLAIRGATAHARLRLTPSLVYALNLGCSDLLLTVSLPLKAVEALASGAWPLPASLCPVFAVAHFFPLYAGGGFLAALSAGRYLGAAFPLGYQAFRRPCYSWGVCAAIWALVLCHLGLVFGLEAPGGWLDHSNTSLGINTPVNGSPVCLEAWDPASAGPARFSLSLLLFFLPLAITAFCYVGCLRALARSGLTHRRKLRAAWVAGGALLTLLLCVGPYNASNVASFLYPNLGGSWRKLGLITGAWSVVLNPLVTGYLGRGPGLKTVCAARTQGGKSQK

Key:
[1] = target: Human GPR120 short form (short splice variant, NM_001195755.1) (Homo sapiens, UniProt Q5NUL3); assay: Human GPR120 Calcium Flux Assay
GPR40 = GPR40 (UniProt O14842); assay: GPR40 Calcium Flux Assay; conditions: read-out: GPR40 Calcium Flux Assay EC50; transfected HEK293 cells stably expressing human or rat GPR40; species not given
[2] = target: short form of the GPR120 receptor (Homo sapiens, UniProt Q5NUL3); assay: Human GPR120 DiscoveRx PathHunter Beta-Arrestin Assay, Procedure B; conditions: read-out: Human GPR120 Beta-Arrestin Assay Procedure B EC50, PathHunter CHO-K1 GPR120S cells, 5000 cells/well
[3] = target: long form of human GPR120 (Homo sapiens, UniProt Q5NUL3); assay: Human GPR120 DiscoveRx PathHunter Beta-Arrestin Assay, Procedure A; conditions: read-out: Human GPR120 Beta-Arrestin Assay Procedure A EC50, PathHunter CHO-K1 GPR120 cells, 3000 cells per well
[4] = read-out: Human GPR120 Calcium Flux Assay Procedure B EC50, HEK-293 cells, 4200 cells/well
[5] = read-out: Human GPR120 Calcium Flux Assay Procedure A EC50, HEK-293 cells, 2500 cells/well

| Structure (SMILES) | pEC50 [1, 4] | pEC50 (GPR40) | also measured |
| --- | --- | --- | --- |
| Cc1ccc(C2=C(COc3ccc(CCC(=O)O)c(C(F)(F)F)c3)CCOC2)cc1-c1ccccc1 | < 5.30 | – | – |
| Cc1cc(OCC2=C(C3CCCC3)COC2)ccc1CCC(=O)O | 6.15 | 5.95 | – |
| Cc1ccc(C2=C(COc3ccc(CCC(=O)O)c(C)c3C)CCOC2)cc1F | 6.81 | < 5.00 | – |
| O=C(O)CCc1ccc(OCC2=C(c3ccc(Cl)cc3)COCC2)cc1C(F)(F)F | 6.22 | – | pEC50 [2]: 6.05 |
| Cc1c(CCC(=O)O)ccc(OCC2=C(c3ccc(Cl)cc3)CCOCC2)c1C | 7.03 | < 5.00 | – |
| O=C(O)CCc1ccc(OCC2=C(C3CCCC3)COC2)cc1C(F)(F)F | 5.84 | 6.44 | – |
| Cc1ccc(C2=C(COc3ccc(CCC(=O)O)c(C(F)(F)F)c3)CCOC2)cc1C(C)C | 5.54 | – | – |
| Cc1ccc(C2=C(COc3ccc(CCC(=O)O)c(C(F)(F)F)c3)CCOC2)c(C(C)C)c1 | < 5.30 | – | – |
| Cc1ccc(C2=C(COc3ccc(CCC(=O)O)c(C(F)(F)F)c3)CCOC2)cc1 | 6.37 | – | – |
| O=C(O)CCc1cc(F)c(OCC2=C(c3ccc(F)cc3)CSC2)c(F)c1 | 6.51 | – | pEC50 [2]: 6.50 |
| Cc1ccc(C2=C(COc3ccc(CCC(=O)O)c(C(F)(F)F)c3)CCOCC2)cc1 | 6.21 | – | – |
| O=C(O)CCc1ccc(OCC2=C(C3CCCC3)COC2)cc1F | 6.30 | 5.91 | – |
| Cc1c(CCC(=O)O)ccc(OCC2=C(c3ccccc3)COC2)c1C | 6.65 | – | pEC50 [1, 5]: 5.98; pEC50 [3]: 6.35 |
| Cc1ccc(C2=C(COc3ccc(CCC(=O)O)c(C(F)(F)F)c3)CCOC2)c(C)c1 | < 5.30 | – | – |
| O=C(O)CCc1ccc(OCC2=C(c3ccc(Cl)cc3)CCOCC2)cc1C(F)(F)F | 6.16 | – | – |
| Cc1ccc(C2=C(COc3ccc(CCC(=O)O)c(F)c3F)CCOC2)cc1F | 6.80 | < 5.00 | – |
| Cc1ccc(C2=C(COc3cc(C)c(CCC(=O)O)cc3F)CCOCC2)cc1F | 6.17 | 5.38 | – |

| Structure (SMILES) | pEC50 [1, 4] | pEC50 (GPR40) | also measured |
| --- | --- | --- | --- |
| O=C(O)CCc1ccc(OCC2=C(C3CCCC3)COCC2)cc1C(F)(F)F | 6.32 | 7.15 | – |
| Cc1ccc(C2=C(COc3ccc(CCC(=O)O)c(C(F)(F)F)c3)CCOCC2)cc1F | 6.02 | 5.69 | – |
| O=C(O)CCc1ccc(OCC2=C(C3C=CCC3)CCOC2)cc1C(F)(F)F (stereo not shown) | 5.99 | 6.82 | – |
| Cc1cc(CCC(=O)O)ccc1OCC1=C(c2ccc(F)cc2)CS(=O)(=O)C1 | 5.40 | – | – |
| O=C(O)CCc1ccc(OCC2=C(C3CCCC3)CCOCC2)cc1C(F)(F)F | 6.34 | 6.73 | – |
| O=C(O)CCc1ccc(OCC2=C(c3ccccc3)COCC2)cc1C(F)(F)F | 6.26 | – | – |
| Cc1ccc(C2=C(COc3c(F)cc(CCC(=O)O)cc3F)CCOC2)cc1F | 6.88 | 5.36 | – |
| Cc1ccc(C2=C(COc3c(F)cc(CCC(=O)O)cc3F)CCOCC2)cc1F | 6.56 | 5.59 | – |
| Cc1ccc(C2=C(COc3ccc(CCC(=O)O)c(F)c3F)CCOCC2)cc1F | 6.42 | 5.44 | – |
| O=C(O)CCc1cc(F)c(OCC2=C(c3ccc(F)cc3)CS(=O)(=O)C2)c(F)c1 | < 5.30 | – | – |
| O=C(O)CCc1ccc(OCC2=C(c3ccc(Cl)cc3)COCC2)cc1CC1CC1 | 6.11 | – | – |
| Cc1ccc(C2=C(COc3ccc(CCC(=O)O)c(C(F)(F)F)c3)CCOC2)c(-c2ccccc2)c1 | < 5.30 | – | – |
| Cc1c(CCC(=O)O)ccc(OCC2=C(c3ccc(Cl)cc3)COC2)c1C | 7.04 | – | pEC50 [1, 5]: 6.41; pEC50 [3]: 7.00 |
| O=C(O)CCc1ccc(OCC2=C(C3C=CCC3)CCOC2)cc1Cl (stereo not shown) | 6.29 | 6.57 | – |
| Cc1ccc(C2=C(COc3ccc(CCC(=O)O)c(C(F)(F)F)c3)CCOC2)c(F)c1 | 5.95 | – | – |
| O=C(O)CCc1cc(F)c(OCC2=C(c3ccc(Cl)cc3)COCC2)c(F)c1 | 6.71 | – | pEC50 [2]: 6.80 |

pEC50: −log10 of the molar value. Where two headings read alike, the source gives them in different places.
